Assay results reported in paper doi:10.1101/2025.09.22.677768.

Chains of the proteins cited; added tags and fusions are not shown.
UniProt O95271, whole entry: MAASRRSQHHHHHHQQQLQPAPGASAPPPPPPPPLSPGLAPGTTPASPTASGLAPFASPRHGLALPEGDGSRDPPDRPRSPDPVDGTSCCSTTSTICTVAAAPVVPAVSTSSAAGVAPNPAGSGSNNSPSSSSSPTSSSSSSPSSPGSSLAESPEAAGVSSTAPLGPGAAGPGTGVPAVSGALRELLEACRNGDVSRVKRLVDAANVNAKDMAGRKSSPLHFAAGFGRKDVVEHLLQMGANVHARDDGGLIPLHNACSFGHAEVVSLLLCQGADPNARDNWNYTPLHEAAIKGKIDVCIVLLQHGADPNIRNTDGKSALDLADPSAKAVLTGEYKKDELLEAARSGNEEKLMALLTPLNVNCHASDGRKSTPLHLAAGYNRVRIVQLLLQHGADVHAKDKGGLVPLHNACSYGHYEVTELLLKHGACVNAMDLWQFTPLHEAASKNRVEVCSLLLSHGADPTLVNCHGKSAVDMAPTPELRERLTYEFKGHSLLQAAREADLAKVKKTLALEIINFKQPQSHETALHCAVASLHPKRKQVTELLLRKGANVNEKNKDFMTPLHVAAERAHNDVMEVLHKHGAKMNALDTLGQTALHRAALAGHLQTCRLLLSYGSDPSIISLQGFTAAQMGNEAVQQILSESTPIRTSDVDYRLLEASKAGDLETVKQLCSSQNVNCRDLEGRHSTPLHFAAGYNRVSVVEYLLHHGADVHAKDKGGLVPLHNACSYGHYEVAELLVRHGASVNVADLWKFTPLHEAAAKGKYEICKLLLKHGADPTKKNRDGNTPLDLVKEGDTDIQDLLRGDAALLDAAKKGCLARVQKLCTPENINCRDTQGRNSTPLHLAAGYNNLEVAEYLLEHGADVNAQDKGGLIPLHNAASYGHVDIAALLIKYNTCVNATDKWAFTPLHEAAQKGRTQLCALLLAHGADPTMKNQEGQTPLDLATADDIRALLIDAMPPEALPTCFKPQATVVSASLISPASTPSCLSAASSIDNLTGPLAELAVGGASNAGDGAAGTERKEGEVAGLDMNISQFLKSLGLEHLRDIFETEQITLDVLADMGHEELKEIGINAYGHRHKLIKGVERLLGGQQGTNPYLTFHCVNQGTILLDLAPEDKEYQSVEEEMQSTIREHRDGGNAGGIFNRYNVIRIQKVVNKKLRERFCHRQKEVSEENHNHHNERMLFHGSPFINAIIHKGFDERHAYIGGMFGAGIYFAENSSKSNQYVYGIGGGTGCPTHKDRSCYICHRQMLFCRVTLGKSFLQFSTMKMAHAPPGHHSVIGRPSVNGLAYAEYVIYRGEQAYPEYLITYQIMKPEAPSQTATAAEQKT
UniProt Q96SW2, whole entry partner: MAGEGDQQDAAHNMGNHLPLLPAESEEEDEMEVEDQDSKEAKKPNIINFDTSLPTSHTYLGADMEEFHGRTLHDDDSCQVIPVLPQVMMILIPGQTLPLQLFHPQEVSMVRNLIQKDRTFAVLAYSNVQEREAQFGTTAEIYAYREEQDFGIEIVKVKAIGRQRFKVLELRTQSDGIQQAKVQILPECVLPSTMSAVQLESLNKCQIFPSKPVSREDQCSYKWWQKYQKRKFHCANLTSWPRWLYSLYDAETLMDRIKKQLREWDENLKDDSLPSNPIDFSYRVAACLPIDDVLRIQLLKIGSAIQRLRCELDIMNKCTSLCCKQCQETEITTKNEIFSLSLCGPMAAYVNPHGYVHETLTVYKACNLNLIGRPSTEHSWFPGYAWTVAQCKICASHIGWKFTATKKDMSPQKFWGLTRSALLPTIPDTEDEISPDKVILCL

Biological target: TNKS1 (Homo sapiens, UniProt O95271)
Experiment: PROTAC degradation, NanoLuc assay in HAP1-TNKS1-NanoLuc cells; Western blot; blocked by IWR1, pomalidomide or MG132

## O=C1CCC(N2C(=O)c3cccc(NCCOCCOCCOCCOCc4cn(Cc5ccnc6c(NC(=O)c7ccc(N8C(=O)C9C%10C=CC(C%10)C9C8=O)cc7)cccc56)nn4)c3C2=O)C(=O)N1 (stereo not shown)
  DC50: 60 nM
